Experimental data published in PMC5792450, “PRRT2 Regulates Synaptic Fusion by Directly Modulating SNARE Complex Assembly” (Cell Reports, 2018).

What was measured:
[1] = molecular target: assembled SNARE complex (VAMP2/syntaxin1a/SNAP25) (UniProt P63044 1-116; P32851 1-288; P60879 1-206); assay: MST; t-SNARE or assembled SNARE complex titrated in solution, up to ∼150 μM t-SNARE and ∼60 μM SNARE complex; binding not saturated; soluble conditions; Syt1 tested likewise; settings: both partners purified
[2] = molecular target: t-SNARE (syntaxin1a/SNAP25) (UniProt P32851 1-288; P60879 1-206); assay: cell-based or functional assay

Kd [1]: ≥ 50 µM
half-maximal inhibition of lipid mixing, from the dose-response curve of PRRT2/t-SNARE ratios [2]: ~1 copy of PRRT2 for each t-SNARE
B1: proline-rich transmembrane protein 2 (PRRT2), full-length, wild type (natural protein, human, UniProt Q7Z6L0 1-340, looked up)
chain: MAASSSEISEMKGVEESPKVPGEGPGHSEAETGPPQVLAGVPDQPEAPQPGPNTTAAPVDSGPKAGLAPETTETPAGASETAQATDLSLSPGGESKANCSPEDPCQETVSKPEVSKEATADQGSRLESAAPPEPAPEPAPQPDPRPDSQPTPKPALQPELPTQEDPTPEILSESVGEKQENGAVVPLQAGDGEEGPAPEPHSPPSKKSPPANGAPPRVLQQLVEEDRMRRAHSGHPGSPRGSLSRHPSSQLAGPGVEGGEGTQKPRDYIILAILSCFCPMWPVNIVAFAYAVMSRNSLQQGDVDGAQRLGRVAKLLSIVALVGGVLIIIASCVINLGVYK
notes: PRRT2, human, full length, cloned into pGEX6p-1; In the fusion, docking and FRET assays it was reconstituted into liposomes; also called purified PRRT2; recombinant PRRT2; source: E. coli Rosetta2(DE3), purified (glutathione agarose, cleaved off the resin with PreScission Protease)
